Reference: PubChem BioAssay AID1325 (NMMLSC, 2008)
The list shows a part of the results, in another mix than the full data. Calls of active or inactive are those of the source.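 How the source made its calls: active means inhibition above 80%; inactive means the rest.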

The chains behind the UniProt entries cited, without tags or fusion partners. Where a name states a change or a piece, a line headed by the entry shows the natural chain unless it says otherwise.
UniProt Q9UNQ0: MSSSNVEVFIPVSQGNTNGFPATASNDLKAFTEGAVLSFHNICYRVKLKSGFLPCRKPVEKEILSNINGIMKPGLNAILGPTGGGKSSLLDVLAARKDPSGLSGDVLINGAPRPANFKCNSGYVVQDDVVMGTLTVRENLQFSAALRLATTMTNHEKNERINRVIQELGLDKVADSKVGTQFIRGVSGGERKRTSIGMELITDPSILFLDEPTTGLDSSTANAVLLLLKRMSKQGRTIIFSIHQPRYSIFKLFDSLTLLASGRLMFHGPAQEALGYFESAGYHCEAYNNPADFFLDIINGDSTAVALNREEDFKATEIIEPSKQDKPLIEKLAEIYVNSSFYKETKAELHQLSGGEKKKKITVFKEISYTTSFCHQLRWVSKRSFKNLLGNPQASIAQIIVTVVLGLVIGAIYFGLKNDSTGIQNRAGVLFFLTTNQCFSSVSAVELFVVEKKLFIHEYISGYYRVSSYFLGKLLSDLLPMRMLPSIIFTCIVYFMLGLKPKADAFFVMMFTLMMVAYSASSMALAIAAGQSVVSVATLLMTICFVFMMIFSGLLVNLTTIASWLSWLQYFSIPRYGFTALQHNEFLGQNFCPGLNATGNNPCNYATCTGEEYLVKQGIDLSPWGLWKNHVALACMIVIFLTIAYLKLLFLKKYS

Biological target: Broad substrate specificity ATP-binding cassette transporter ABCG2 (Homo sapiens) (UniProt Q9UNQ0)
Assay: blockers of JC-1 export by ABCG2 – multiplex with ABCB1, IgMXP3 cells, flow cytometry, primary screen (AID 1325);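 further: 0% = DMSO and 100% = nicardipine control wells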
Conditions: JC-1 efflux, at 6.6 µM, active compounds read high

Q: Cc1ccc2nc3c(c(C)c2c1)CC(C(Cl)Cl)S3 (centres undefined) was tested. Which inhibition did it give?
A: inactive: 2.71%

Q: For CC(C)NC(=O)NP(=O)(Oc1ccccc1)Oc1ccccc1, which inhibition is on record?
A: inactive: -3.34%

Q: For CCN(CC)C(=S)SC(NC=O)C(Cl)(Cl)Cl (centres undefined), which inhibition is on record?
A: inactive: 1.19%

Q: O=[N+]([O-])c1cc([N+](=O)[O-])c(-c2ccn[nH]2)s1 was tested. Which inhibition did it give?
A: inactive: 7.28%

Q: How did the inhibition turn out when ClCCSc1nnc(-c2cccnc2)o1 was run?
A: inactive: 1.97%

Q: COc1ccc2nc(NP(=O)(c3ccccc3)c3ccccc3)sc2c1 was tested. Which inhibition did it give?
A: inactive: 2.75%

Q: O=C(OC1CN2CCC1CC2)C12CC3CC(CC(C3)C1)C2 (centres undefined) was tested. Which inhibition did it give?
A: inactive: 0.16%

Q: How did the inhibition turn out when Cc1cc(=O)[nH]c(N[N+](=O)[O-])n1 was run?
A: inactive: 0.16%

Q: For Cc1c2c(nc3ccccc13)SC(C(Cl)Cl)C2 (centres undefined), which inhibition is on record?
A: inactive: 8.63%

Q: Which inhibition does the source give for COc1ccc(N/C(=N/P(=O)(N2CCOCC2)N2CCOCC2)N2CCOCC2)cc1 here?
A: inactive: 0.97%

Q: For O=C(COc1ccccc1)OC1CN2CCC1CC2 (centres undefined), which inhibition is on record?
A: inactive: 1.98%

Q: Which inhibition does the source give for COP1(=S)c2c(C)nn(CCC#N)c2N=C(c2ccc(F)cc2)N1C (centres undefined) here?
A: inactive: 8.75%

Q: With CCC(C)N(CC(C)C)C(=S)SC(NC(C)=O)C(Cl)(Cl)Cl (centres undefined) as the compound, how does the inhibition read?
A: inactive: 1.72%

Q: Which inhibition does the source give for Cc1cc(SC(NC(=O)c2ccccc2)C(Cl)(Cl)Cl)nc(C(C)C)n1 (centres undefined) here?
A: inactive: -2.52%

Q: How did the inhibition turn out when Cc1cc(SC(NC=O)C(Cl)(Cl)Cl)ncn1 (centres undefined) was run?
A: inactive: 6.73%

Q: For O=P(Nc1ccccn1)(c1cccc2ccccc12)c1cccc2ccccc12, which inhibition is on record?
A: inactive: -0.68%

Q: For CN(C)C1(CNC(=O)c2ccc(S(C)(=O)=O)cc2)CCCCC1, which inhibition is on record?
A: inactive: 2.53%

Q: Which inhibition does the source give for Cc1nn(-c2ccccc2)c2c1P(=O)(N1CCOCC1)N(C)C(c1ccccc1)=N2 (centres undefined) here?
A: inactive: 1.1%

Q: With CC1CCC(C(C)C)C(OP(=O)(Nc2ccccn2)c2ccccc2)C1 (centres undefined) as the compound, how does the inhibition read?
A: inactive: 3.14%

Q: Cc1ccc(OCC(=O)OC2CN3CCC2CC3)cc1 (centres undefined) was tested. Which inhibition did it give?
A: inactive: -0.31%

Q: O=P1(Nc2ccc(Br)cn2)COc2ccccc2OC1 was tested. Which inhibition did it give?
A: inactive: 0.52%

Q: O=P1(Nc2ncccn2)COc2ccccc2OC1 was tested. Which inhibition did it give?
A: inactive: 1.54%

Q: Which inhibition does the source give for Clc1n[nH]nc1-c1nn[nH][15n]1 here?
A: inactive: -5.45%

Q: Which inhibition does the source give for O=P1(Nc2ccccn2)COc2ccccc2OC1 here?
A: inactive: 9.57%

Q: With CN(C(=O)Cc1ccc(Cl)c(Cl)c1)[C@@H]1CCCC[C@H]1N1CCCC1 as the compound, how does the inhibition read?
A: inactive: -1.6%

Q: CC(C)/C=N\N=C(\N)N[N+](=O)[O-] was tested. Which inhibition did it give?
A: inactive: -1.19%

Q: How did the inhibition turn out when Cc1cccc(OCC(=O)OC2CN3CCC2CC3)c1 (centres undefined) was run?
A: inactive: -2.32%

Q: How did the inhibition turn out when COc1cc(C(=O)NCC2(N3CCOCC3)CCCCC2)cc(Cl)c1OC(C)C was run?
A: inactive: 3.98%

Q: Which inhibition does the source give for COc1cc(C2NCCC3(OCCO3)C2(C)C)cc(OC)c1OC (centres undefined) here?
A: inactive: 70%

Q: With CCOP(=O)(Nc1cccc2ccccc12)OCC as the compound, how does the inhibition read?
A: inactive: -0.08%

Q: Which inhibition does the source give for Cc1ccc(NCCc2c([N+](=O)[O-])cc([N+](=O)[O-])cc2[N+](=O)[O-])cc1 here?
A: inactive: 14.9%

Q: How did the inhibition turn out when CCOP1(=S)c2c(C)nn(CCC#N)c2N=C(c2ccccc2F)N1C (centres undefined) was run?
A: inactive: 1.45%

Q: For O=P(Nc1nccs1)(Oc1ccccc1)Oc1ccccc1, which inhibition is on record?
A: inactive: 2.45%

Q: How did the inhibition turn out when O=P(Nc1nccs1)(c1ccccc1)c1nc2ccccc2s1 (centres undefined) was run?
A: inactive: 2.49%

Q: For O=[N+]([O-])c1ccc2c(c1)nnn2O, which inhibition is on record?
A: inactive: 1.49%

Q: With CCOP1(=S)c2c(C)nn(CCC#N)c2N=C(c2ccc(F)cc2)N1C (centres undefined) as the compound, how does the inhibition read?
A: inactive: -1.37%

Q: Which inhibition does the source give for O=C(NC1CCS(=O)(=O)C1)NP(=S)(Oc1ccccc1)Oc1ccccc1 (centres undefined) here?
A: inactive: 4.61%

Q: CCNC(=S)/N=C(\N)N[N+](=O)[O-] was tested. Which inhibition did it give?
A: inactive: 4.55%

Q: With c1ccc(-c2nn[nH]n2)c(-c2nn[nH]n2)c1 as the compound, how does the inhibition read?
A: inactive: 0.48%

Q: CCOC(=O)NC(Sc1ccccc1)C(Cl)(Cl)Cl (centres undefined) was tested. Which inhibition did it give?
A: inactive: 1.79%

Q: For O=c1c2cc([N+](=O)[O-])ccc2[nH]c2c([N+](=O)[O-])cc([N+](=O)[O-])cc12, which inhibition is on record?
A: inactive: 1.69%

Q: COC(=O)c1cc2c(s1)N=C(c1ccccc1)N(C)P2(=O)N1CCOCC1 (centres undefined) was tested. Which inhibition did it give?
A: inactive: -1.74%

Q: CC(=O)NC(SC(=S)N(CC(C)C)CC(C)C)C(Cl)(Cl)Cl (centres undefined) was tested. Which inhibition did it give?
A: inactive: 1.42%

Q: How did the inhibition turn out when Cc1ccc(OP(=O)(Nc2ccccn2)Oc2ccc(C)cc2)cc1 was run?
A: inactive: 1.04%

Q: With CCC(=O)N1C2C3N(C(=O)CC)C1C1N(C(=O)CC)C(C(N1C(=O)CC)N3C(=O)CC)N2C(=O)CC as the compound, how does the inhibition read?
A: inactive: 0.85%

Q: CC(C)(C)C(=O)NC(Sc1ccccc1)C(Cl)(Cl)Cl (centres undefined) was tested. Which inhibition did it give?
A: inactive: 0.89%

Q: With O=P1(Nc2nc3ccc(Cl)cc3s2)COc2ccccc2O1 (centres undefined) as the compound, how does the inhibition read?
A: inactive: 1.1%

Q: How did the inhibition turn out when CCOc1ccc(C2=NCC(CBr)S2)cc1 (centres undefined) was run?
A: inactive: 1.65%

Q: How did the inhibition turn out when CC(=O)Nc1ccc(Oc2c([N+](=O)[O-])cc([N+](=O)[O-])cc2[N+](=O)[O-])cc1 was run?
A: inactive: 5.14%

Q: With c1nnnn1CCn1cnnn1 as the compound, how does the inhibition read?
A: inactive: 2.76%

Q: O=P(Nc1nccs1)(c1ccccc1)c1ccccc1 was tested. Which inhibition did it give?
A: inactive: 1.4%

Q: How did the inhibition turn out when CC(C)C(=O)NC(Sc1ccccc1)C(Cl)(Cl)Cl (centres undefined) was run?
A: inactive: 3.94%

Q: How did the inhibition turn out when O=P(Nc1ccccn1)(c1ccc(Br)cc1)c1ccc(Br)cc1 was run?
A: inactive: 1.16%

Q: With C(Cc1nn[nH]n1)Cc1nn[nH]n1 as the compound, how does the inhibition read?
A: inactive: -3.17%

Q: O=C(OC1CN2CCC1CC2)c1cccc(Cl)c1 (centres undefined) was tested. Which inhibition did it give?
A: inactive: 3.42%

Q: CC(=O)NC(SC(=S)N(C)C)C(Cl)(Cl)Cl (centres undefined) was tested. Which inhibition did it give?
A: inactive: 18.2%

Q: With O=[N+]([O-])c1ncn(CCn2ncnc2[N+](=O)[O-])n1 as the compound, how does the inhibition read?
A: inactive: 10.1%

Q: With CC(=O)N1C2C3N(C(C)=O)C1C1N(C(C)=O)C(C(N1C(C)=O)N3C(C)=O)N2C(C)=O as the compound, how does the inhibition read?
A: inactive: -0.2%

Q: For O=[N+]([O-])c1cccc2n[nH]nc12, which inhibition is on record?
A: inactive: 2.43%

Q: For Cc1ccc(NP(=O)(Oc2ccccc2)Oc2ccccc2)nc1, which inhibition is on record?
A: inactive: -0.4%

Q: How did the inhibition turn out when O=[N+]([O-])c1cc([N+](=O)[O-])c(CCNc2ccccc2)c([N+](=O)[O-])c1 was run?
A: inactive: 2.72%

Q: CCc1nc2c(n1)c1c(non1O)c1c2no[n+]1[O-] was tested. Which inhibition did it give?
A: inactive: 2.01%

Q: With COc1ccc(C2=NCC(CBr)S2)cc1 (centres undefined) as the compound, how does the inhibition read?
A: inactive: -0.34%

Q: With CC(C)=N/N=C(\N)N[N+](=O)[O-] as the compound, how does the inhibition read?
A: inactive: 0.63%

Q: Which inhibition does the source give for CN(C)C(=O)OCCc1n(C)cc[n+]1C here?
A: inactive: -1.46%

Q: CC1CCN(C(=O)Oc2c(Cl)cc(Cl)c3cccnc23)CC1 was tested. Which inhibition did it give?
A: inactive: 4.62%

Q: CCN(/C(=N/P(=O)(N1CCOCC1)N1CCOCC1)N1CCOCC1)c1ccc(OC)cc1 was tested. Which inhibition did it give?
A: inactive: -2.12%

Q: Which inhibition does the source give for COc1ccccc1OP(=O)(Nc1ccc(C)cn1)Oc1ccccc1OC here?
A: inactive: 1.42%

Q: For CN1CCCC(OC(=O)C(c2ccccc2)c2ccccc2)C1 (centres undefined), which inhibition is on record?
A: inactive: 0.13%

Q: How did the inhibition turn out when Clc1ccc(Cl)c(NC2=NCC(CBr)S2)c1 (centres undefined) was run?
A: inactive: 14.3%

Q: Which inhibition does the source give for NC(=O)c1cc([N+](=O)[O-])cc([N+](=O)[O-])c1N here?
A: inactive: 5.26%

Q: For Cc1ccc(N/C(=N/P(=O)(N2CCOCC2)N2CCOCC2)N2CCOCC2)cc1, which inhibition is on record?
A: inactive: 6.77%

Q: CC(C)CC(=O)NC(Sc1ccc(Cl)cc1)C(Cl)(Cl)Cl (centres undefined) was tested. Which inhibition did it give?
A: inactive: 3.87%

Q: Oc1ccccc1CNc1ccccn1 was tested. Which inhibition did it give?
A: inactive: 11.3%

Q: How did the inhibition turn out when O=C(NC(Sc1ccncn1)C(Cl)(Cl)Cl)c1ccccc1 (centres undefined) was run?
A: inactive: 2.67%

Q: Cc1c2non([O-])c-2c(C)[n+](=O)[n+]1[O-] was tested. Which inhibition did it give?
A: inactive: 1.06%

Q: Which inhibition does the source give for Cc1cc(SC(NC(=O)c2ccc(F)cc2)C(Cl)(Cl)Cl)ncn1 (centres undefined) here?
A: inactive: 1.08%

Q: For CCOP(=O)(Nc1ccccc1)OCC, which inhibition is on record?
A: inactive: 0.87%

Q: For CCN(N=Nc1nonc1N)c1nonc1N, which inhibition is on record?
A: inactive: 6.67%
